From patent US10799478B2, “Treatment of androgen deprivation therapy associated symptoms” (priority 2014, dated 2020)
Read-outs that look alike come from different tables or passages of the source.

What was measured:
[1] = 52 Week Toxicity and Toxicokinetic Study in Dogs; conditions: male, beagle, dog, in vivo, po
Protocol: Male and female purebred beagle dogs are assigned to groups, and doses are administered according to Table 9 via oral capsules containing 1 ml/kg of 0 [1% (w/v) carboxymethylcellulose sodium (low viscosity/25-50 cps), 0.5% (w/v) sodium lauryl sulfate and 0.05% (v/v) Dow Corning® Antifoam 1510-US in reverse osmosis water] […] All animals receive the same number of capsules, and Group 1 animals receive capsules containing vehicle control article only. Three animals per sex from Groups 1 and 4 are designated as recovery animals.
Assessment of toxicity is based on mortality, clinical signs, body weight and body weight change, food consumption, ophthalmic and neurologic evaluations, ECG measurements, hormone analysis (testosterone, progesterone, luteinizing hormone, and follicle stimulating hormone), semen evaluation (ejaculate volume and sperm number, density, morphology, and motility), and clinical and anatomic pathology. Blood samples are collected for exploratory metabolite analysis and toxicokinetic evaluations.

[2] = Four Week Oral Toxicity Study in Rats; assay type: in vivo; conditions: male, CD [Crl:CD (SD)], rat, plasma
Protocol: Three treatment groups of 10 male and 10 female CD® [Crl:CD® (SD)] rats are administered the test article at respective dose levels of 15, 150, and 1500 mg/kg/day. […] The test article or vehicle is administered to all groups via oral gavage, once a day for 28 consecutive days, at a dose volume of 15 mL/kg. Additionally, three groups of 18 animals/sex/group serves as toxicokinetic (TK) animals and receives the test article in the same manner and dose volume as the main study groups at respective dose levels of 15, 150, and 1500 mg/kg/day. One additional group of three animals/sex serves as the toxicokinetic control and receives the vehicle in the same manner and dose volume as the treated groups.
Observations for morbidity, mortality, injury, and the availability of food and water are conducted twice daily for all animals. Observations for clinical signs are conducted weekly for main study animals only. Body weights were measured and recorded weekly for all animals and food consumption is measured and recorded weekly for main study animals. Ophthalmoscopic examinations are conducted pretest on all animals and prior to terminal necropsy for main study animals only. Blood samples for clinical pathology evaluations are collected from all main study animals at necropsy. Urine samples are collected on the last day of dosing. Blood samples for determination of the plasma concentrations of the test article are collected from TK animals at designated time points on Days 1 and 28. After the final blood collection, the TK animals are euthanized and the carcasses are discarded without further evaluation. Liver samples for hepatic enzyme induction analysis are collected at terminal necropsy from main study animals. At study termination, necropsy examinations are performed, organ weights are recorded, and prostate and seminal vesicle tissues are microscopically examined. Additional microscopic examination is performed on the left testis from the first five male rats/group at necropsy.

ORX Wistar male rats = test: In Vivo Study to Explore Direct Antagonist Effect of Example 1 in the Presence of TE; parameters: species or system rat; conditions: ORX + Example 1 10 mg/kg/d without TE, vs TE alone
Protocol: Route of administration for all groups except TE is oral. TE is administered subcutaneously. At the end of 8 weeks of daily dosing, rats are euthanized, weighed & tissue harvested. Levator ani, prostates, and seminal vesicles are collected from each animal. Results are plotted as means±SE.

[3] = 6 month treatment of dogs (Table 10); conditions: male, dog, in vivo, 300 mg/kg/day
[4] = system: LnCAP human prostate cancer cells; test: LnCAP Gene Expression; assay type: cell-based
Orx rats = test: Orchidectomized Rat Assay; assay type: in vivo; conditions: 20 mg/Kg/d

Work on `CC(C)OC(=O)N[C@H]1Cc2c(n(Cc3ccccn3)c3ccc(C#N)cc23)C1` (single isomer, unassigned) [Example 1] yielded an AUC(0-t) ([1]; dogs, 12 months, 10 mg/kg/day, read-out: Male group mean AUC0-24 hr near termination) of 13400 ng·h/mL, an AUC(0-t) ([1]; dogs, 12 months, 100 mg/kg/day, read-out: Male group mean AUC0-24 hr near termination) of 22600 ng·h/mL and an AUC(0-t) ([1]; males, 100 mg/kg, after 361 days of dosing, read-out: AUC0-24 h) of 22600 ng·h/mL. For the same compound, the AUC(0-t) ([2]; oral, males, 1500 mg/kg/day, read-out: Mean steady-state systemic exposure (AUC0-24 hr)) was 102000 ng·h/mL, the AUC(0-t) ([2]; po, rats, 1 month, 15 mg/kg/day, read-out: Male group mean AUC0-24 hr near termination) was 35700 ng·h/mL and the AUC(0-t) ([2]; po, rats, 1 month, 150 mg/kg/day, read-out: Male group mean AUC0-24 hr near termination) was 72300 ng·h/mL. The AUC(0-t) ([2]; po, rats, 1 month, 1500 mg/kg/day, read-out: Male group mean AUC0-24 hr near termination) was 102000 ng·h/mL, the “Prostate Weights, Abs(Dif) − LSD” value (ORX Wistar male rats) was 0.357 and the AUC(0-t) [3] was 53000 ng·h/mL. The EC50 ([4]; CLUSTERIN gene, read-out: LnCAP Gene Expression EC50 (nM) CLUSTERIN) was over 100 nM, the EC50 ([4]; PSA gene, read-out: LnCAP Gene Expression EC50 (nM) PSA) was 2.64 nM and the “LV-TBMC (mg) ± SD” value (Orx rats) was 1.6943 ± 0.0264 mg.
